# Laboratory results from paper PMC10580319, “Quantitative Imaging of the Action of vCPP2319, an Antimicrobial Peptide from a Viral Scaffold, against Staphylococcus aureus Biofilms of a Clinical Isolate” (ACS Infectious Diseases, 2023).
# Tested on: human red blood cells (hRBCs)
# Assay: Hemolytic activity on human red blood cells
# Type: cell-based
# Details: 3.13 μM, 1 h incubation, 37 °C, 0.25% (v/v) hRBCs in PBS pH 7.4, absorbance at 415 nm
# Description: Fresh human blood was obtained from healthy donors after written informed consent. To isolate human red blood cells (hRBCs), samples were centrifuged at 1000g for 10 min at 4 °C, washed three times, and resuspended in sterile phosphate buffered saline (PBS) (pH 7.4) to a final concentration of 0.25% (v/v). hRBCs suspensions were incubated with vCPP2319, ranging from 0.05 to 50 μM, for 4 or 24 h, with α-amylase from Bacillus sp. (EC 3.2.1.1; ∼380 U/mg; Cat no. 10069 from Sigma-Aldrich), ranging from 0.0078 to 0.5 mg/mL, for 1 h, or with the hemolytic peptide melittin (positive control), ranging from 0.05 to 50 μM, for 1 h at 37 °C, with gentle swirling, in a sterile 96-well microtiter round-bottomed polypropylene plate (Corning, NY, USA). After incubation, the plate was centrifuged at 1000g for 5 min at 4 °C, and supernatants were transferred to a sterile 96-well microtiter clear flat-bottomed polystyrene plate (Corning). Hemoglobin release from lysed cells was quantified by measuring the absorbance at 415 nm in an infinite M200 microplate reader (Tecan, Männedorf, Switzerland). […] Hemolytic activity (%) was determined using the following equation: [drawing 1] 1 where Abstreated is the absorbance of peptide-treated cells, Absuntreated is the absorbance of samples incubated with PBS, and AbsTriton is the absorbance of samples incubated with Triton X-100. […]
smiles,measurement,value
CC[C@H](C)[C@H](NC(=O)CN)C(=O)NCC(=O)N[C@@H](C)C(=O)N[C@H](C(=O)N[C@@H](CC(C)C)C(=O)N[C@@H](CCCCN)C(=O)N[C@H](C(=O)N[C@@H](CC(C)C)C(=O)N[C@H](C(=O)N[C@H](C(=O)NCC(=O)N[C@@H](CC(C)C)C(=O)N1CCC[C@H]1C(=O)N[C@@H](C)C(=O)N[C@@H](CC(C)C)C(=O)N[C@H](C(=O)N[C@@H](CO)C(=O)N[C@@H](Cc1c[nH]c2ccccc12)C(=O)N[C@H](C(=O)N[C@@H](CCCCN)C(=O)N[C@@H](CCCNC(=N)N)C(=O)N[C@@H](CCCCN)C(=O)N[C@@H](CCCNC(=N)N)C(=O)N[C@@H](CCC(N)=O)C(=O)N[C@@H](CCC(N)=O)C(N)=O)[C@@H](C)CC)[C@@H](C)CC)[C@@H](C)O)[C@@H](C)O)C(C)C)C(C)C [melittin],hemolysis,ca. 100%
